# Apparent affinities of Ab-14 variants for a coronavirus HR2 peptide

The measurements come from Li et al. 2023 (doi:10.1038/s41467-023-39022-2) through the FLAb antibody collection.

Target peptide (SARS-CoV-2 spike, HR2 region): PDVDLGDISGINAS

Each scFv is VH, a 15-residue (Gly4Ser)3 linker, VL, as in the parent Ab-14, and differs from it in the CDRs of the light chain only.
VH: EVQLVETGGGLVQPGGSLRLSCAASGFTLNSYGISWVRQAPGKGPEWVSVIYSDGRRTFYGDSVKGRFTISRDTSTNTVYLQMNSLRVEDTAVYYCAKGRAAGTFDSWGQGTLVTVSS
VL: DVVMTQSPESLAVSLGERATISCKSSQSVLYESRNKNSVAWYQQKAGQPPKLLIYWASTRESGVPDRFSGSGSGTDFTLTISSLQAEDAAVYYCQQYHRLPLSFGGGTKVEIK

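Phage display of a naive human antibody library on the peptide gave the parent. This is the validation round: designs drawn from the data on random variants, tested in the same kind of assay. Several design methods are mixed in this list. In AlphaSeq, yeast of one mating type display the scFv and yeast of the other type display the target. Binding brings cells together so that they mate, and sequencing counts the barcode pairs among the diploids. Read counts were normalised to the haploid input and turned into Kd by a linear fit to BCL2-family pairs of known affinity, for each replicate. Each pool was mated in six replicate cultures.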

Variants are written as CDR1, CDR2 and CDR3 of the light chain (limits as in the source). Parent: KSSQSVLYESRNKNSVA, WASTRES, QQYHRLPLS. Variants here have more than six changes. Values are apparent Kd, the geometric mean of the replicates that gave a signal; lower means stronger binding. "nd" marks a missing value. The strain was present, yet no cells mated with the target were sequenced in any replicate, which points to weak or no binding.

Variant KLDMYELGYSQLSSSVA | GSANKCQ | QQYFRLPLS gave 790 pM (6 of 6 replicates; controls 1 of 18). For KLRWDDMSHFNTRSAVA | DMTMRVH | QQYNRLPLD, the assay gave 3.9 nM (6 of 6 replicates; controls 0 of 18). Variant QIYQAMHTLSQMQDNVA | DVNERGS | QQYFRLPLS gave 2.6 nM (6 of 6 replicates; controls 0 of 18). For MISQLYNMGSFAINSVA | QAEERNE | QQYDRLPLI, the assay gave 120 nM (4 of 6 replicates; controls 1 of 18). Variant KLNISYLFESLEKNSIA | ENSTREK | QHYHRLPLS gave 130 nM (1 of 6 replicates; controls 0 of 18). For KLMQSWLGQSWNKNSVA | NASQREH | QQYHRLPLS, the assay gave 2.4 nM (6 of 6 replicates; controls 1 of 18). Variant MISQLMQMGQFAINSVA | QASIRNE | QQYDRLPLE showed 60 nM (6 of 6 replicates; controls 0 of 18). Variant KLDQWVEMESRWKNSVA | SASQRNE | QQYHRLPLS showed 15 nM (6 of 6 replicates; controls 0 of 18). With KLRQSTAYLMENKNSVA | ELSTRGS | QQYFRLPLS the result was 2.3 nM (6 of 6 replicates; controls 2 of 18).

Variant KLSGSMEYQSRNKNNVA | NASQREQ | QSYHRLPLS showed 1.6 nM (6 of 6 replicates; controls 0 of 18). Variant QISLNGWDGEPYEYAVA | EGSIADA | QQYHRLPLS gave 94 nM (1 of 6 replicates; controls 0 of 18). Variant KLSQSVMGGSRNKWSVA | NASQREQ | QQYHRLPLS showed 11 nM (6 of 6 replicates; controls 1 of 18). For HLSDTVMQGLYYRNSVA | QESTRAD | QQYHHLPLS, the assay gave 4.0 nM (6 of 6 replicates; controls 2 of 18). For NLMSGGSELSVWSRNIA | DANIRES | QQYFRLPLL, the assay gave 2.1 nM (6 of 6 replicates; controls 1 of 18). Variant HMRMECSGYQNYGKSIA | HGNMRHN | QQYSRLPFS gave 15 nM (6 of 6 replicates; controls 1 of 18). Variant KLSQSWLYLSRNSNAVA | EASQREQ | QQYHRLPLS showed 920 pM (6 of 6 replicates; controls 1 of 18). For KLSQSWWMESRNPNNVA | HASTRES | QQYHRLPLS, the assay gave 470 pM (6 of 6 replicates; controls 1 of 18). For GHDHTMESGKQAPNSIA | NAEQKTI | QQYQRLPLS, the assay gave 2.4 nM (6 of 6 replicates; controls 0 of 18).

Variant MISQLYNMGTFAINSVA | QASERSE | QQYDRLPLI showed 38 nM (6 of 6 replicates; controls 2 of 18). Variant TISQSFLMENQFKNSVA | QANTRES | QCYDRLPLS showed 22 nM (6 of 6 replicates; controls 0 of 18). With NMSDSIEKMASIERNIA | DETTRAM | QQYYRLPLS the result was 3.7 nM (6 of 6 replicates; controls 1 of 18). Variant HIGMATMSQETVRNSVA | NNSTRES | QQYDRLPLS showed 25 nM (6 of 6 replicates; controls 1 of 18). Variant IISQSVLGGYHNKNSVA | QTSERGQ | QQYDRLPLA gave 82 nM (3 of 6 replicates; controls 0 of 18). Variant KFSQSVCYEDRVKNSVA | NASDRMS | QQYHRLPLS showed 6.7 nM (6 of 6 replicates; controls 2 of 18). For TISQMTSQFSQSINNVA | EVSTREK | QQYDRLPLS, the assay gave 2.0 nM (6 of 6 replicates; controls 1 of 18). With KLSMSYRFETLEKNSIA | ELVTRMS | QQYHRLPLS the result was nd (0 of 6 replicates; controls 0 of 18). Variant KCSQNVGIMGRGKNNVA | EMTTREE | QQYDRLPLS showed 1.8 nM (6 of 6 replicates; controls 0 of 18).

With KLTMIMGLEKVSKNNVA | EMETRER | QQYNRLPLS the result was 7.5 nM (6 of 6 replicates; controls 1 of 18). Variant KLSMLHWYWSRNKNSVA | EASTRLQ | QQYHRLPLS gave 9.1 nM (6 of 6 replicates; controls 0 of 18). Variant KLTMITGLEKVSKNNVA | EMETRER | QQYNRLPLA showed 4.0 nM (6 of 6 replicates; controls 0 of 18). Variant ILMQPYKELGAAKDNIA | DGSIRLD | QQYHRLPLV showed 5.4 nM (6 of 6 replicates; controls 1 of 18). With TLGGVTSYEMENKNSVA | QMTTRES | QQYHRLPLS the result was 2.7 nM (6 of 6 replicates; controls 0 of 18). Variant NLQNIGSELSVWKNAIA | DVNIRES | QQYFRLPLL gave 2.2 nM (6 of 6 replicates; controls 0 of 18). With HMSMLTMMGMRHMNSVA | QMTTREN | QQYDRLPLM the result was 91 nM (1 of 6 replicates; controls 0 of 18). Variant MLSQMWALGMKAKNSVA | QANMRFN | QQYDRLPLI gave 1.2 µM (2 of 6 replicates; controls 1 of 18). Variant KSSGSVMGEDWNKNSVA | HASQRES | QQYHRLPLM showed 4.1 nM (6 of 6 replicates; controls 1 of 18).

Variant IISQVDAYESRNKSSIA | DQSTRGS | QQYDRLPLS gave 32 nM (6 of 6 replicates; controls 1 of 18). Variant MISQLYNMGQFAINSVA | QASERYN | QQYDRLPLV showed nd (0 of 6 replicates; controls 0 of 18). For AVDFSWLYESRNKNSVA | NASTREQ | QQYHRLPLS, the assay gave 780 pM (6 of 6 replicates; controls 0 of 18). Variant KVDMYELPMEFNRSHVA | QAEVRAP | QQYWRLPLE showed 2.8 nM (6 of 6 replicates; controls 1 of 18). With KLSNSVNYLSRVMNSVA | DNSTRES | QQYFRLPLS the result was 1.6 nM (6 of 6 replicates; controls 1 of 18). For MLENKPTSFNNNKDAIA | DDEASTS | QQYDRLPLS, the assay gave nd (0 of 6 replicates; controls 0 of 18). Variant HMSESEHGDNVGVGNMA | NAQETVA | QQYMHLPLS gave 1.4 nM (6 of 6 replicates; controls 2 of 18). Variant HFSQVTMYGSWLKNSVA | QTSTREE | QQYDRLPLS showed 3.5 nM (6 of 6 replicates; controls 0 of 18). Variant KIGLGTNGEKFQSNSVA | QTSTREE | QQYHRLPLS gave 1.7 nM (6 of 6 replicates; controls 1 of 18).

Variant MMSMGFLGGMRAKNNVA | QEETREK | QQYHRLPLI showed 27 nM (5 of 6 replicates; controls 0 of 18). Variant NLDKADYESRQMINNIA | DMSTLMA | QQYASLPLD gave 180 nM (2 of 6 replicates; controls 0 of 18). Variant IIYESVGTLSRNKNSVA | DNSTREK | QQYDRLPLS gave 1.0 µM (4 of 6 replicates; controls 1 of 18). With MISQLYNMGTFAINSVA | QASERCN | QQYDRLPLI the result was 300 nM (3 of 6 replicates; controls 1 of 18). With MMSQVWGSGTRHRNNVA | QTSMREP | QQYDRLPLI the result was 13 nM (6 of 6 replicates; controls 0 of 18). For QLHAYTQGFKRIDGNIA | DISYRAI | QQYGRLPLS, the assay gave 11 nM (6 of 6 replicates; controls 0 of 18).

The last 8 entries again:

For HFSQVTMYGSWLKNSVA | QTSTREE | QQYDRLPLS, the assay gave 3.5 nM (6 of 6 replicates; controls 0 of 18).
For KIGLGTNGEKFQSNSVA | QTSTREE | QQYHRLPLS, the assay gave 1.7 nM (6 of 6 replicates; controls 1 of 18).
For MMSMGFLGGMRAKNNVA | QEETREK | QQYHRLPLI, the assay gave 27 nM (5 of 6 replicates; controls 0 of 18).
For NLDKADYESRQMINNIA | DMSTLMA | QQYASLPLD, the assay gave 180 nM (2 of 6 replicates; controls 0 of 18).
For IIYESVGTLSRNKNSVA | DNSTREK | QQYDRLPLS, the assay gave 1.0 µM (4 of 6 replicates; controls 1 of 18).
For MISQLYNMGTFAINSVA | QASERCN | QQYDRLPLI, the assay gave 300 nM (3 of 6 replicates; controls 1 of 18).
For MMSQVWGSGTRHRNNVA | QTSMREP | QQYDRLPLI, the assay gave 13 nM (6 of 6 replicates; controls 0 of 18).
For QLHAYTQGFKRIDGNIA | DISYRAI | QQYGRLPLS, the assay gave 11 nM (6 of 6 replicates; controls 0 of 18).

Of ten entries with the parent sequence, four were seen in most replicates (averages 2.2 nM to 240 nM), three in one and three in none, so single entries are noisy. Background: pairings of all light chain designs with three empty control strains gave a value in 4% of cases (median 430 nM, 5th percentile 38 nM). Values in that range, when seen in few replicates, are hard to tell from nonspecific mating. Also given: how often the same scFv was detected with the empty control strains. Values of this round are not directly comparable with the first-round values of the same sequences. The authors' rule: three or more of the six replicates give a measured affinity, fewer mean a poor binder.